A value given as a limit tells only on which side of the number the result lay.

In the first test the test system is THP1-Dual cells (ISG54 promoter Lucia luciferase reporter). In words: THP-1 Dual Lucia Reporter Gene Assay. Type of test: cell-based, human. The settings on record: Homo sapiens, THP1-Dual, 20 h, Lucia luciferase signal induction, 20 hours at 37° C., read-out: Cellular THP 1 EC50. Here is the method:
THP1-Dual™ cells (InvivoGen #thpd-nfis) were derived from the human THP-1 monocyte cell line by stable integration of the Lucia luciferase gene, a secreted luciferase reporter gene, under the control of an ISG54 (interferon-stimulated gene) minimal promoter in conjunction with five interferon (IFN)-stimulated response elements. […] The cell plates were dosed with 62.5 nL of the testing compounds, and then incubated at 37° C. for 20 hours. At the end of the incubation, 15 μL/well of the QUANTI-Luc™ (InvivoGen #rep-q1c1) were added, and luminescence was measured immediately using the LeadSeeker.
Compound concentration versus percent signal induction curves were fitted to generate EC50 values.
`Nc1nc2c(ncn2[C@@H]2O[C@@H]3COP(=O)(O)O[C@H]4C[C@H](Oc5cnsn5)C[C@@H]4COP(=O)(O)O[C@@H]2[C@@H]3O)c(=O)[nH]1` [Compound I-16, 2-amino-9-[(5R,7R,8R,12aR,14R,15aS,16R)-2,10,16-trihydroxy-2,10-dioxido-14-(1,2,5-thiadiazol-3-yloxy)decahydro-5,8-methanocyclopenta[1][1,3,6,9,11,2,10]pentaoxadiphosphacyclotetradecin-7-yl]-1,9-dihydro-6H-purin-6-one]: the EC50 (commonly the concentration at which the effect is half-maximal) is 10 to 25 µM. Same read-out and setting: under `CN(c1ncncn1)[C@@H]1C[C@@H]2COP(=O)(O)O[C@@H]3[C@H](O)[C@@H](COP(=O)(O)O[C@H]2C1)O[C@H]3n1cnc2c(=O)[nH]c(N)nc21` [Compound I-33, 2-amino-9-{(5R,7R,8R,12aR,14R,15aS,16R)-2,10,16-trihydroxy-14-[methyl(1,3,5-triazin-2-yl)amino]-2,10-dioxidodecahydro-5,8-methanocyclopenta[1][1,3,6,9,11,2,10]pentaoxadiphosphacyclotetradecin-7-yl}-1,9-dihydro-6H-purin-6-one] stands greater than 25 µM.

Take `Nc1nc2c(ncn2[C@@H]2O[C@@H]3COP(=O)(O)O[C@H]4C[C@H](Oc5ccccn5)C[C@@H]4COP(=O)(O)O[C@@H]2[C@@H]3O)c(=O)[nH]1` [Compound I-11, 2-amino-9-[(5R,7R,8R,12aR,14R,15aS,16R)-2,10,16-trihydroxy-2,10-dioxido-14-(pyridin-2-yloxy)decahydro-5,8-methanocyclopenta[1][1,3,6,9,11,2,10]pentaoxadiphosphacyclotetradecin-7-yl]-1,9-dihydro-6H-purin-6-one]: the EC50 was greater than 25 µM. The same measure, in the same setting: under `Nc1nc2c(ncn2[C@@H]2O[C@@H]3COP(=O)(S)O[C@H]4C[C@H](Oc5ccncn5)C[C@@H]4COP(=O)(S)O[C@@H]2[C@@H]3F)c(=O)[nH]1` (single isomer, unassigned) [Compound I-22a] stands 1 to 10 µM; under `Nc1cc(O[C@@H]2C[C@@H]3COP(=O)(O)O[C@@H]4[C@H](O)[C@@H](COP(=O)(O)O[C@H]3C2)O[C@H]4n2cnc3c(=O)[nH]c(N)nc32)ncn1` [Compound I-13, 2-amino-9-{(5R,7R,8R,12aR,14R,15aS,16R)-14-[(6-aminopyrimidin-4-yl)oxy]-2,10,16-trihydroxy-2,10-dioxidodecahydro-5,8-methanocyclopenta[1][1,3,6,9,11,2,10]pentaoxadiphosphacyclotetradecin-7-yl}-1,9-dihydro-6H-purin-6-one], 10 to 25 µM.

Staying with this test, now noted: Lucia luciferase signal induction, 20 hours at 37° C., read-out: Cellular THP 1 EC50.
Take `Nc1nc2c(nnn2[C@@H]2C[C@@H]3COP(=O)(S)O[C@@H]4[C@@H](COP(=O)(S)O[C@@H]2C3)C[C@@H](Nc2ccncn2)[C@@H]4F)c(=O)[nH]1` (single isomer, unassigned) [Compound I-25a]: the EC50 was 1 to 10 µM. `Nc1nc2c(ncn2[C@@H]2O[C@@H]3COP(=O)(S)O[C@H]4C[C@H](Oc5ccncn5)C[C@@H]4COP(=O)(S)O[C@@H]2[C@@H]3O)c(=O)[nH]1` (single isomer, unassigned) [Compound I-5a]: the concentration giving a half-maximal response (EC50) is greater than 25 µM. Regarding `Nc1nc2c(nnn2[C@@H]2O[C@@H]3COP(=O)(S)O[C@H]4C[C@H](Oc5ccncn5)C[C@@H]4COP(=O)(S)O[C@@H]2[C@@H]3O)c(=O)[nH]1` (stereo partly drawn) [Compound I-30b, 5-amino-3-[(2S,5R,7R,8R,10S,12aR,14R,15aS,16R)-16-hydroxy-2,10-dioxido-14-(pyrimidin-4-yloxy)-2,10-disulfanyldecahydro-5,8-methanocyclopenta[1][1,3,6,9,11,2,10]pentaoxadiphosphacyclotetradecin-7-yl]-3,6-dihydro-7H-[1,2,3]triazolo[4,5-d]pyrimidin-7-one], the EC50 was less than 1 µM.

For `Nc1nc2c(ncn2[C@@H]2O[C@@H]3COP(=O)(S)O[C@H]4C[C@H](Oc5ccncn5)C[C@@H]4COP(=O)(S)O[C@@H]2[C@@H]3F)c(=O)[nH]1` (single isomer, unassigned) [Compound I-22b], the EC50 was less than 1 µM. Same read-out and setting: under `Nc1nc2c(ncn2[C@@H]2O[C@@H]3COP(=O)(S)O[C@H]4C[C@H](Oc5ccncn5)C[C@@H]4COP(=O)(S)O[C@@H]2C3)c(=O)[nH]1` (single isomer, unassigned) [Compound I-1a] stands 10 to 25 µM; under `Nc1nc2c(ccn2[C@@H]2O[C@@H]3COP(=O)(S)O[C@H]4C[C@H](Oc5ccncn5)C[C@@H]4COP(=O)(S)O[C@@H]2[C@@H]3O)c(=O)[nH]1` (single isomer, unassigned) [Compound I-31b], 1 to 10 µM. Same read-out and setting: the figure for `Nc1nc2c(ncn2[C@@H]2O[C@@H]3COP(=O)(S)O[C@H]4C[C@H](Nc5ncncn5)C[C@@H]4COP(=O)(S)O[C@@H]2[C@@H]3O)c(=O)[nH]1` (single isomer, unassigned) [Compound I-44b] is 1 to 10 µM.

Turning to `Nc1nc2c(ncn2[C@@H]2O[C@@H]3COP(=O)(S)O[C@@H]4[C@@H](COP(=O)(S)O[C@@H]2[C@@H]3O)C[C@@H](Nc2ccncn2)[C@H]4F)c(=O)[nH]1` (stereo partly drawn) [Compound I-35a, 2-amino-9-[(2S,5R,7R,8R,10S,12aR,14R,15R,15aR,16R)-15-fluoro-16-hydroxy-2,10-dioxido-14-(pyrimidin-4-ylamino)-2,10-disulfanyldecahydro-5,8-methanocyclopenta[1][1,3,6,9,11,2,10]pentaoxadiphosphacyclotetradecin-7-yl]-1,9-dihydro-6H-purin-6-one], the half-maximal effective concentration (EC50) is 10 to 25 µM. The same measure, in the same setting: the figure for `Nc1nc2c(ncn2[C@@H]2O[C@@H]3COP(=O)(S)O[C@@H]4[C@@H](COP(=O)(S)O[C@@H]2[C@@H]3O)C[C@@H](Nc2ccncn2)[C@H]4F)c(=O)[nH]1` (stereo partly drawn) [Compound I-35b, 2-amino-9-[(2S,5R,7R,8R,10S,12aR,14R,15R,15aR,16R)-15-fluoro-16-hydroxy-2,10-dioxido-14-(pyrimidin-4-ylamino)-2,10-disulfanyldecahydro-5,8-methanocyclopenta[1][1,3,6,9,11,2,10]pentaoxadiphosphacyclotetradecin-7-yl]-1,9-dihydro-6H-purin-6-one] is 1 to 10 µM; for `O=c1[nH]cnc2c1ncn2[C@@H]1O[C@@H]2COP(=O)(S)O[C@H]3C[C@H](Oc4ccncn4)C[C@@H]3COP(=O)(S)O[C@@H]1[C@@H]2O` (single isomer, unassigned) [Compound I-9c] it is greater than 25 µM. On the same count and under the same terms, the figure for `Nc1nc2c(nnn2[C@@H]2O[C@@H]3COP(=O)(S)O[C@H]4C[C@H](Oc5ccncn5)C[C@@H]4COP(=O)(S)O[C@@H]2[C@@H]3O)c(=O)[nH]1` (single isomer, unassigned) [Compound I-30c] is 1 to 10 µM; for `Nc1nc2c(ncn2[C@@H]2O[C@@H]3COP(=O)(S)O[C@H]4C[C@H](Oc5ccncn5)C[C@@H]4COP(=O)(S)O[C@@H]2[C@@H]3O)c(=O)[nH]1` (single isomer, unassigned) [Compound I-5d] it is 10 to 25 µM.
